Data published in ChEMBL document CHEMBL1155492, “Evaluation of thieno[3,2-b]pyrrole[3,2-d]pyridazinones as activators of the tumor cell specific M2 isoform of pyruvate kinase” (Bioorg Med Chem Lett, 2010).

Amino acid sequences for entries named in this document (tags omitted).
UniProt P14618, whole entry, looked up: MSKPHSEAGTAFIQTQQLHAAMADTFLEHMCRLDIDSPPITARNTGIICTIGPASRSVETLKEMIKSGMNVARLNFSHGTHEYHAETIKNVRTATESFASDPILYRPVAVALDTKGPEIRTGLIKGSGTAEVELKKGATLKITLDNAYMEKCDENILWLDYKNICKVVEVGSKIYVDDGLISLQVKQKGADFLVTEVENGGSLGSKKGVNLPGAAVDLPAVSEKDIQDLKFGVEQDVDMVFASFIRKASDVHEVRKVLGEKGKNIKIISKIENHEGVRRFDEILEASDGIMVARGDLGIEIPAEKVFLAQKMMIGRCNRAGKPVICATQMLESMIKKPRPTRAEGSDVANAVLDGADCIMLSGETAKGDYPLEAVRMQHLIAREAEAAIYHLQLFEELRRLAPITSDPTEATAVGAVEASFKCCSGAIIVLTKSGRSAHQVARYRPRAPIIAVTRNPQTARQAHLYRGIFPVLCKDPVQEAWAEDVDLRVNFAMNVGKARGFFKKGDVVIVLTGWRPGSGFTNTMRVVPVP

Target: Pyruvate kinase PKM (Homo sapiens, UniProt P14618)
Test: Activation of human PKM2 assessed as pyruvate formation at 57 uM after 1 hr by fluorescent pyruvate kinase-lactate dehydrogenase coupled assay relative to fructose-1,6-bis-phosphate

Structure (SMILES): Cc1cc2c(s1)c1cnn(Cc3ccccc3F)c(=O)c1n2C
- Activity: 22.4%
